Permeability data for macrocyclic peptides

Collected by the curators of CycPeptMPDB (Li et al. 2023) from Kelly et al. 2021, doi:10.1021/jacs.0c06115.

PAMPA measures passive passage through an artificial lipid membrane. Permeability is given as log10 of P in cm/s; higher (less negative) is more permeable.

compound,PAMPA (log10 cm/s)
CC(=O)N1CCC[C@H]1C(=O)N(C)[C@H](CC(C)C)C(=O)N[C@@H]1C(=O)N[C@H](CC(C)C)C(=O)N(C)[C@H](CC(C)C)C(=O)N(C)[C@H](CC(C)C)C(=O)N[C@@H](C)C(=O)N[C@@H](CC(C)C)C(=O)N2CCC[C@H]2C(=O)O[C@@H]1C,-6.38
CC(=O)N1CCC[C@@H]1C(=O)N(C)[C@H](CC(C)C)C(=O)N[C@@H]1C(=O)N(C)[C@H](CC(C)C)C(=O)N[C@@H](CC(C)C)C(=O)N(C)[C@H](CC(C)C)C(=O)N(C)[C@H](C)C(=O)N[C@@H](CC(C)C)C(=O)N2CCC[C@H]2C(=O)O[C@@H]1C,-5.55
CC(=O)N1CCC[C@H]1C(=O)N(C)[C@H](CC(C)C)C(=O)N[C@@H]1C(=O)N(C)[C@H](CC(C)C)C(=O)N[C@@H](CC(C)C)C(=O)N(C)[C@H](CC(C)C)C(=O)N(C)[C@H](C)C(=O)N[C@@H](CC(C)C)C(=O)N2CCC[C@H]2C(=O)O[C@@H]1C,-5.17
CC(=O)N1CCC[C@H]1C(=O)N(C)[C@H](CC(C)C)C(=O)N[C@@H]1C(=O)N[C@@H](CC(C)C)C(=O)N[C@H](CC(C)C)C(=O)N[C@@H](CC(C)C)C(=O)N[C@@H](C)C(=O)N[C@H](CC(C)C)C(=O)N2CCC[C@H]2C(=O)O[C@@H]1C,-6.70
CC(=O)N1CCC[C@@H]1C(=O)N(C)[C@@H](CC(C)C)C(=O)N[C@@H]1C(=O)N(C)[C@@H](CC(C)C)C(=O)N[C@@H](CC(C)C)C(=O)N[C@@H](CC(C)C)C(=O)N[C@@H](C)C(=O)N[C@H](CC(C)C)C(=O)N2CCC[C@@H]2C(=O)O[C@@H]1C,-7.32
CC(=O)N1CCC[C@@H]1C(=O)N(C)[C@H](CC(C)C)C(=O)N[C@@H]1C(=O)N(C)[C@@H](CC(C)C)C(=O)N[C@H](CC(C)C)C(=O)N[C@H](CC(C)C)C(=O)N[C@H](C)C(=O)N[C@H](CC(C)C)C(=O)N2CCC[C@@H]2C(=O)O[C@@H]1C,-7.22
CC(=O)N1CCC[C@@H]1C(=O)N(C)[C@H](CC(C)C)C(=O)N[C@@H]1C(=O)N(C)[C@@H](CC(C)C)C(=O)N(C)[C@H](CC(C)C)C(=O)N(C)[C@@H](CC(C)C)C(=O)N(C)[C@@H](C)C(=O)N[C@@H](CC(C)C)C(=O)N2CCC[C@H]2C(=O)O[C@@H]1C,-5.70
CC(=O)N1CCC[C@H]1C(=O)N(C)[C@H](CC(C)C)C(=O)N[C@@H]1C(=O)N(C)[C@@H](CC(C)C)C(=O)N(C)[C@H](CC(C)C)C(=O)N(C)[C@H](CC(C)C)C(=O)N(C)[C@@H](C)C(=O)N[C@H](CC(C)C)C(=O)N2CCC[C@H]2C(=O)O[C@@H]1C,-5.25
CC(=O)N[C@@H]1C(=O)N2CCC[C@H]2C(=O)N(C)[C@H](CC(C)C)C(=O)N[C@H](CC(C)C)C(=O)N[C@@H](CC(C)C)C(=O)N[C@@H](CC(C)C)C(=O)N[C@@H](C)C(=O)N[C@@H](CC(C)C)C(=O)N2CCC[C@@H]2C(=O)O[C@@H]1C,-7.11
CC(=O)N1CCC[C@H]1C(=O)N(C)[C@@H](CC(C)C)C(=O)N[C@@H]1C(=O)N(C)[C@H](CC(C)C)C(=O)N[C@@H](CC(C)C)C(=O)N(C)[C@@H](CC(C)C)C(=O)N(C)[C@@H](C)C(=O)N[C@H](CC(C)C)C(=O)N2CCC[C@H]2C(=O)O[C@@H]1C,-6.18
CC(=O)N1CCC[C@H]1C(=O)N(C)[C@H](CC(C)C)C(=O)N[C@@H]1C(=O)N(C)[C@H](CC(C)C)C(=O)N[C@H](CC(C)C)C(=O)N(C)[C@@H](CC(C)C)C(=O)N(C)[C@H](C)C(=O)N[C@H](CC(C)C)C(=O)N2CCC[C@@H]2C(=O)O[C@@H]1C,-5.20
CC(=O)N1CCC[C@H]1C(=O)N[C@@H]1C(=O)N(C)[C@H](CC(C)C)C(=O)N[C@H](CC(C)C)C(=O)N[C@H](CC(C)C)C(=O)N[C@@H](CC(C)C)C(=O)N[C@H](C)C(=O)N[C@@H](CC(C)C)C(=O)N2CCC[C@@H]2C(=O)O[C@@H]1C,-6.67
CC(=O)N1CCC[C@H]1C(=O)N(C)[C@@H](CC(C)C)C(=O)N[C@@H]1C(=O)N(C)[C@H](CC(C)C)C(=O)N[C@@H](CC(C)C)C(=O)N(C)[C@H](CC(C)C)C(=O)N(C)[C@H](C)C(=O)N[C@H](CC(C)C)C(=O)N2CCC[C@H]2C(=O)O[C@@H]1C,-5.67
CC(=O)N1CCC[C@@H]1C(=O)N(C)[C@H](CC(C)C)C(=O)N[C@@H]1C(=O)N[C@@H](CC(C)C)C(=O)N(C)[C@H](CC(C)C)C(=O)N[C@H](CC(C)C)C(=O)N[C@H](C)C(=O)N[C@H](CC(C)C)C(=O)N2CCC[C@@H]2C(=O)O[C@@H]1C,-6.97
CC(=O)N1CCC[C@H]1C(=O)N(C)[C@@H](CC(C)C)C(=O)N[C@@H]1C(=O)N(C)[C@@H](CC(C)C)C(=O)N(C)[C@H](CC(C)C)C(=O)N(C)[C@@H](CC(C)C)C(=O)N(C)[C@H](C)C(=O)N[C@@H](CC(C)C)C(=O)N2CCC[C@@H]2C(=O)O[C@@H]1C,-5.51
CC(=O)N1CCC[C@H]1C(=O)N(C)[C@@H](CC(C)C)C(=O)N[C@@H]1C(=O)N[C@@H](CC(C)C)C(=O)N(C)[C@@H](CC(C)C)C(=O)N(C)[C@H](CC(C)C)C(=O)N[C@@H](C)C(=O)N[C@@H](CC(C)C)C(=O)N2CCC[C@H]2C(=O)O[C@@H]1C,-6.56
CC(=O)N1CCC[C@H]1C(=O)N(C)[C@H](CC(C)C)C(=O)N[C@@H]1C(=O)N[C@H](CC(C)C)C(=O)N(C)[C@H](CC(C)C)C(=O)N[C@H](CC(C)C)C(=O)N[C@@H](C)C(=O)N[C@@H](CC(C)C)C(=O)N2CCC[C@@H]2C(=O)O[C@@H]1C,-5.30
CC(=O)N1CCC[C@H]1C(=O)N(C)[C@@H](CC(C)C)C(=O)N[C@@H]1C(=O)N(C)[C@@H](CC(C)C)C(=O)N(C)[C@H](CC(C)C)C(=O)N(C)[C@@H](CC(C)C)C(=O)N(C)[C@@H](C)C(=O)N[C@H](CC(C)C)C(=O)N2CCC[C@H]2C(=O)O[C@@H]1C,-5.21
CC(=O)N1CCC[C@@H]1C(=O)N(C)[C@@H](CC(C)C)C(=O)N[C@@H]1C(=O)N[C@H](CC(C)C)C(=O)N(C)[C@H](CC(C)C)C(=O)N(C)[C@H](CC(C)C)C(=O)N[C@H](C)C(=O)N[C@H](CC(C)C)C(=O)N2CCC[C@H]2C(=O)O[C@@H]1C,-5.67

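The data file gives no further conditions (lipid, pH, time, direction or concentration), and values from different papers need not be comparable. Other peptides of the study may be missing here. Entries at the database's floor value (log10 P of -10) are not listed.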